Data on two molecules can be found in patent publication US20140205582A1, “MEGAKARYOCYTE PROGENITOR CELLS FOR PRODUCTION OF PLATELETS” (CELLERANT THERAPEUTICS, INC., priority 2011, published 2014).

“Also recorded” adds a separate entry of the source.

This assay relates to human CD34+ cells. As to the kind of experiment: Expansion of CD34+ cells into MKPs in serum-free culture. The class given is cell-based. The source says: Isolation of human CD34^+ cells. G-CSF mobilized peripheral blood was harvested from healthy donors via leukapheresis (see, e.g., Kawamoto et al. (2009) Stem Cells 27:2857). CD34+ cells were positively selected using magnetic beads (Dynal, Lake Success, N.Y.) linked to anti-CD34 monoclonal antibody on an Isolex Device (Baxter, Deerfield, Ill.). CD34^+ cells were enriched to 96-98% purity. Aliquots of 15-20×10^6 cells/ml were cryopreserved until use.
Expansion of CD34^+ cells. CD34^+ cells from donors were thawed, pooled as indicated, and seeded at 5×10^5 cells/ml in serum-free X-vivo 15 medium (Lonza, Walkersville, Md.) supplemented with IX GlutaMAX (Invitrogen, Carlsbad, Calif.). Cytokines were added as follows. […] The active range for TPO mimetic was 0.1-100 nM. IL-1α (Peprotech, Rocky Hill, N.J.) was typically used at 10 ng/ml, with an active range 1-200 ng/ml tested. IL-9 was typically used at 60 ng/ml IL-9, with an active range of 1-200 ng/ml. HSA (purified human serum albumin protein) was typically used at 1%, with an active range of 0.2-4%. Cultures were incubated at 37° C. in a humidified atmosphere containing 5% carbon dioxide. Viable cells were counted daily and cell concentration was readjusted to about 5×10^5 cells/ml by the addition of fresh medium with cytokines.
Analysis of MKPs. Cell surface marker expression was analyzed by flow cytometry using CD15b, CD33, CD34, CD41, CD42a, CD90, and CD184 antibodies. Prior to antibody staining, cells were washed with HBSS containing 2% BSA and blocked with rat and mouse IgG (SouthernBiotech, Birmingham, AL) for 10 minutes at 4° C. Cells were incubated for 30 minutes at 4° C. with following monoclonal antibodies: CD34-PE (Miltenyi Biotec, Auburn, Calif.), CD41a-APC, CD42a-FITC, CD33-PE-Cy7 (BD Pharmingen, San Jose, Calif.), CD15-biotin and streptavidin-PE-TxRed (eBioscience, San Diego, Calif.). Cells were washed with staining media and FACS analysis was performed on FACS Aria (BD Bioscience).

In the case of “HSA: purified human serum albumin protein”, where the note is “1% HSA with 10 nM TPO mimetic, 10 ng/ml IL-1a, IL-9, 8 days”, the “effect on MKP cell expansion” value was “further increased MKP cell expansion; also recorded: Cell numbers increased significantly; also recorded: leads to higher fold expansion”. In addition, under “1% HSA, 8 days”, the “effect on percentage / composition of CD34+CD41+ cells” value is on record as “slight reduction in the percentage of CD34+CD41+ cells; also recorded: the CD34+CD41+ population was maintained; also recorded: slightly reduced relative numbers of the potent CD34+CD41+ cells; also recorded: the cellular composition of the expanded MKPs was maintained” and the “effect on total yield of CD34+CD41+ cells” value is on record as “increases the total yield of CD34+CD41+ cells; also recorded: higher total yield of CD34+CD41+ cells”. In addition, the “increase in cell numbers” value (1% HSA, shaker flasks, 10 nM TPO mimetic, 10 ng/ml IL-1a, 60 ng/ml IL-9, 8 days, three cultures) is reported as roughly 50%. Moreover, the active range (concentration in CD34+ expansion medium) was 0.2-4%.

B1: IL-3: interleukin-3, multilineage cytokine/growth factor (protein, UniProt P08700 20-152, looked up)
Interleukin-3: APMTQTTPLKTSWVNCSNMIDEIITHLKQPPLPLLDFNNLNGEDQDILMENNLRRPNLEAFNRAVKSLQNASAIESILKNLLPCLPLATAAPTRHPIHIKDGDWNEFRRKLTFYLKTLENAQAQQTTLSLAIF
As for B1, the “effect on CD184 (CXCR4) expression on MKPs” value (added to the growth media) is “reduced expression of CD184 (CXCR4) on the MKPs”.
